Activity calls are given as the source filed them. No rule for the calls is given here.
Molecular target: Serine/threonine-protein kinase mTOR (Homo sapiens) (UniProt P42345)
Experiment: binders of mTOR FRB domain, biophysical, NMR (AID 1648)
Conditions: NMR binding to FRB domain, chemical shift

SMILES: Cc1c2non([O-])c-2c(C)[n+](=O)[n+]1[O-]
- Kd: inactive: > 4 mM

Source: PubChem BioAssay AID1648 (Sanford-Burnham Center for Chemical Genomics, 2009)
